According to PubChem BioAssay AID639 (Emory University Molecular Libraries Screening Center, 2007):
This is a selection; strong and weak results do not stand in their true shares. The source made the active and inactive calls. No stated cut-off is given here; in the data, active means activity above about 200%; inactive means the rest.

Chains of the proteins cited; added tags and fusions are not shown.
UniProt P03372, whole entry: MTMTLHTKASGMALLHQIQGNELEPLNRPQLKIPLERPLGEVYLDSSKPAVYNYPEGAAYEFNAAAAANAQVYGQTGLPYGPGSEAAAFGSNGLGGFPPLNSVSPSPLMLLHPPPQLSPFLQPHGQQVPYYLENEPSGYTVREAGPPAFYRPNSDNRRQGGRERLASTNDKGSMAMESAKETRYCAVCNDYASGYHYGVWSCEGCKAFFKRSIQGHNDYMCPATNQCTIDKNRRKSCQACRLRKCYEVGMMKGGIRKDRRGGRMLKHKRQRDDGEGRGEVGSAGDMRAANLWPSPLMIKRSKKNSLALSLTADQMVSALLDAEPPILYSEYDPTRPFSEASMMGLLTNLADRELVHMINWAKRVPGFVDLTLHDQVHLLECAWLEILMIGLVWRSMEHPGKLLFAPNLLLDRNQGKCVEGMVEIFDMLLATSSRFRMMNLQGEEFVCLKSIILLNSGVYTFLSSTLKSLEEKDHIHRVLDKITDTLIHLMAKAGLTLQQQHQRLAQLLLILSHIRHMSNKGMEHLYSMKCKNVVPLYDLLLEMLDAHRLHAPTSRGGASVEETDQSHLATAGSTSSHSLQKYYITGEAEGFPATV

Target: Estrogen receptor (Homo sapiens) (UniProt P03372)
Assay: ERα coactivator recruitment potentiators – biochemical, TR-FRET, ERα LBD, low estradiol, primary screen (AID 639);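 further: binding measured in presence of low estradiol as agonist stimulus; 0% = peptide alone without receptor and 100% = receptor with peptide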
Conditions: TR-FRET ERalpha-LBD/SRC-Cy5 coactivator binding, 2 h; at 25.6 µM; stronger effect = higher value; 100 = basal binding, no effect

Row | SMILES | coactivator binding (% of control)
1 | O=C(NCC1(N2CCOCC2)CCCCC1)c1cc2ccccc2o1 | inactive: 119%
2 | O=C(OC1CN2CCC1CC2)C1c2ccccc2Oc2ccccc21 (centres undefined) | inactive: 119%
3 | N#CC1(Nc2ccccc2)CCN(CCc2ccccc2)CC1 | inactive: 106%
4 | O=C(NCC1(N2CCOCC2)CCCCC1)c1cc(=O)[nH]c2ccccc12 | inactive: 100%
5 | N/C(=N\O)c1c(N)no[n+]1[O-] | inactive: 129%
6 | c1ccc(CN2CCC(Nc3ccccc3)CC2)cc1 | inactive: 108%
7 | Fc1ccccc1NC1CCN(Cc2ccccc2)CC1 | inactive: 137%
8 | CCOc1ncccc1C(=O)NCC1(N2CCOCC2)CCCCC1 | inactive: 107%
9 | CCC(CO)(C(=O)OC1CN2CCC1CC2)c1ccccc1 (centres undefined) | inactive: 114%
